In patent EP4725941A1, “ARYLAMIDE DERIVATIVE HAVING ANTITUMOR ACTIVITY” (priority 2020, dated 2021):

What was measured:
Assay type in all cases: cell-based
[1] = test system: A549; assay: Cell proliferation-inhibiting activity (ATP in viable cells, CellTiter-Glo), A549; details: Homo sapiens, A549, 96 h, read-out: A549 IC50
[2] = test system: Calu-6; assay: Cell proliferation-inhibiting activity (ATP in viable cells, CellTiter-Glo), Calu-6; details: Homo sapiens, Calu-6, 96 h, read-out: Calu-6 IC50
[3] = test system: NCI-H2122; assay: Cell proliferation-inhibiting activity (ATP in viable cells, CellTiter-Glo), NCI-H2122; details: Homo sapiens, NCI-H2122, 96 h, read-out: NCI-H2122 IC50

## O=C(NOC[C@H](O)CO)c1ccc(F)c(F)c1Nc1ccc(I)cc1F [Ref-1, N-[(2R)-2,3-Dihydroxypropoxy]-3,4-difluoro-2-(2-fluoro-4-iodoanilino)benzamide, reference compound]
[1]
  IC50: 7 nM
[2]
  IC50: 91 nM
[3]
  IC50: 7 nM
